system: peripheral olig2^+ cells; test: Chemical screen of the LOPAC 1280 library: peripheral olig2+ cells scored in olig2:dsred larvae at 72 hpf; assay type: in vivo, zebrafish; details: 10 μM compound, 1% DMSO, 24 to 72 hpf, blind secondary screen in triplicate

SMILES | validated hit: at least one peripheral olig2+ cell in 3/3 or 2/2 larvae
S=C(Nc1ccccc1)Nc1nccs1 [l-Phenyl-3-(thiazolyl)-2-thiourea, 1-phenyl-3-(2-thiazolyl)-2-thiourea] | Validated hits from screen using LOPAC ®^1280.
OCc1cc(C(O)CNCCCCCCOCCCCc2ccccc2)ccc1O (stereo not shown) [Salmeterol xinafoate] | Validated hits from screen using LOPAC ®^1280.
O=C(O)c1ccccc1Nc1ccccc1 [N-Phenylanthranilic acid] | Validated hits from screen using LOPAC ®^1280.
COc1cc(/C=C(\C#N)C(=O)c2ccc(O)c(O)c2)cc(I)c1O [I-OMe-Tyrphostin AG 538] | Validated hits from screen using LOPAC ®^1280.

same assay, conditions: zebrafish, in vivo

SMILES | validated hit: at least one peripheral olig2+ cell in 3/3 or 2/2 larvae
N=C(N)NOCC[C@H](N)C(=O)O.O=S(=O)(O)O [L-Canavanine sulfate] | Validated hits from screen using LOPAC ®^1280.
CC(=O)SCC[N+](C)(C)C.[Cl-] [Acetylthiocholine chloride] | Validated hits from screen using LOPAC ®^1280.
C[C@H]1CCC/C=C/[C@@H]2C[C@H](O)C[C@H]2[C@H](O)/C=C/C(=O)O1 [Brefeldin A] | Validated hits from screen using LOPAC ®^1280.

Reference: patent US11413324B2, “Compositions and methods for treating peripheral nerve disease, disorders, and injuries” (University of Virginia Patent Foundation, priority 2017, dated 2022)
